# Values of other authors in patent US12268726B2, “Treatment of rhinosinusitis with P-glycoprotein inhibitors” (Massachusetts Eye and Ear Infirmary, priority 2012, dated 2025).
# Sequences of proteins named here, by UniProt entry; tags and fusion partners are left off.
# UniProt P08183, whole entry: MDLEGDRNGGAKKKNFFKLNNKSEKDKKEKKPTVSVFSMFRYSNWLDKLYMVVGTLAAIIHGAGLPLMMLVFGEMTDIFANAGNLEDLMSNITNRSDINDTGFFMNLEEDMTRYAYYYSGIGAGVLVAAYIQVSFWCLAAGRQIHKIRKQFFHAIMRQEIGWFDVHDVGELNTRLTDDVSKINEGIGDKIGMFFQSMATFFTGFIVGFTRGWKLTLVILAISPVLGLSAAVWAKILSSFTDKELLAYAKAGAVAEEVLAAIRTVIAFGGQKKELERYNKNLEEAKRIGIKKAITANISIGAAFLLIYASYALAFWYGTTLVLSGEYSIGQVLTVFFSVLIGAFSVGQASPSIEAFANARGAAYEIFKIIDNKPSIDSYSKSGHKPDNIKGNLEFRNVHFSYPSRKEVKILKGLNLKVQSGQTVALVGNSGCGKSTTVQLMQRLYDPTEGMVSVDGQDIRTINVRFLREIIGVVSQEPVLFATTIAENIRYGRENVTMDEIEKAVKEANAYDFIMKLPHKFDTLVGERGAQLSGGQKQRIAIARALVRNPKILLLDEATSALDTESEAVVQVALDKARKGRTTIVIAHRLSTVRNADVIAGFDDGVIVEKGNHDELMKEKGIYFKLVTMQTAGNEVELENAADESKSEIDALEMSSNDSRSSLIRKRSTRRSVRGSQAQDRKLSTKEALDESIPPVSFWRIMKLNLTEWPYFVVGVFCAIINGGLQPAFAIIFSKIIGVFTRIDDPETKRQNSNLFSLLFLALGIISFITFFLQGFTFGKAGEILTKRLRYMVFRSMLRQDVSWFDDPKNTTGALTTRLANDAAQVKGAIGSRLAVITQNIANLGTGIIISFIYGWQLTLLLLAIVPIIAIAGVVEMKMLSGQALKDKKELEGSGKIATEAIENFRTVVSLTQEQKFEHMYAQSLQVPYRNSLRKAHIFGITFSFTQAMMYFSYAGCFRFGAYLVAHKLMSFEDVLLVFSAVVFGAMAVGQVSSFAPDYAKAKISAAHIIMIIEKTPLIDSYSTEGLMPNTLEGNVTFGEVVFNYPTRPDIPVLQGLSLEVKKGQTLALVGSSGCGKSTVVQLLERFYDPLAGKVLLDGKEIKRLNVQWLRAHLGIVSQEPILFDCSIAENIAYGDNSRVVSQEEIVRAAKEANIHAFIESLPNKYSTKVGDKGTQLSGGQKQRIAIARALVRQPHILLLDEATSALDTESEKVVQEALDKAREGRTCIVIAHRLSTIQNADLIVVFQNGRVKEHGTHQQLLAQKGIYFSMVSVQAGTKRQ
# Biological target: P-gp (Homo sapiens, UniProt P08183)
# Details: Varma et al., 2003; cited from earlier work
smiles,measurement,value
"Cl.Cl.Cl.O[C@@H](COc1cccc2ncccc12)CN1CCN([C@@H]2c3ccccc3[C@@H]3[C@H](c4ccccc42)C3(F)F)CC1 [Zosuquidar, (2R)-1-{4-[(1aR,6r,10bS)-1,1-Difluoro-1,1a,6,10b-tetrahydrodibenzo[a,e]cyclopropa[c]cyclohepten-6-yl]piperazin-1-yl}-3-(quinolin-5-yloxy)propan-2-ol,trihydrochloride]",potency relative to the first and second-generation P-gp inhibitors,about 10 fold
